From publication PMC4728423, “Natural and synthetic flavonoid modulation of TRPC5 channels” (British Journal of Pharmacology, 2016)

Biological target: T1, human TRPC5 (Homo sapiens, UniProt Q9UL62)
T1 construct: expressed in transfected cells
T1 sequence (Q9UL62 1-973): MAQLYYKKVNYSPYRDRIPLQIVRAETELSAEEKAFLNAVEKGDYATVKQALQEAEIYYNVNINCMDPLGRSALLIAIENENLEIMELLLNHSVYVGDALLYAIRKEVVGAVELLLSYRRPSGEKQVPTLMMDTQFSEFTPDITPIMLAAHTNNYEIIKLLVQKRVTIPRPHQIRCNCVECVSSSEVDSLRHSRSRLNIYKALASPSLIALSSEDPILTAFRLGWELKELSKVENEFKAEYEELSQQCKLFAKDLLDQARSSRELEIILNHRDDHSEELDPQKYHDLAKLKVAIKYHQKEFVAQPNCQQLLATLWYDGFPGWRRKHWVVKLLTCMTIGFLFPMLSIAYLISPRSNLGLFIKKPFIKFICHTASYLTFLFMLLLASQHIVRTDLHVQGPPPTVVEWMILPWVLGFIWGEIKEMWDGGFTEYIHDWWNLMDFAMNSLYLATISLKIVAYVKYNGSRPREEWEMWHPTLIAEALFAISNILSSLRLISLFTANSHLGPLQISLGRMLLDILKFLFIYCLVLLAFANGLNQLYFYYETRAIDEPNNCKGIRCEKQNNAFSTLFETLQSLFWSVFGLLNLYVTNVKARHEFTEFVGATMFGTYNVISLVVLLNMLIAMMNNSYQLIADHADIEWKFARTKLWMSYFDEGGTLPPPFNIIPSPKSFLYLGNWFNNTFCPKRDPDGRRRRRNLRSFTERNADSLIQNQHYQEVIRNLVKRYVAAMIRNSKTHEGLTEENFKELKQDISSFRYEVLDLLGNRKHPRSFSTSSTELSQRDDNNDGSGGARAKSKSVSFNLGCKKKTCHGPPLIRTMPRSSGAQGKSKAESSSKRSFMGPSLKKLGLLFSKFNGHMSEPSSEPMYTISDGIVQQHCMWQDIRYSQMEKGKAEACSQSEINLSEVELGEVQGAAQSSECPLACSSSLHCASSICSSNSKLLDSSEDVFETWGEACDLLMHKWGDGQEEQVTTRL
Experiment: Outside-out patch recordings from TRPC5 Tet+ cells
Assay type: cell-based
Details: 5 μM compound, 100 nM (-)-Englerin A

For `O=c1c(O)c(-c2ccccc2Br)oc2cc(O)cc(O)c12` [AM12, 3,5,7‐trihydroxy‐2‐(2‐bromophenyl)‐4H‐chromen‐4‐one], the “average inhibition of (-)-Englerin A-activated TRPC5 current” value was ~ 65%.
